From ChEMBL document CHEMBL1135999, “Discovery of N-isoxazolyl biphenylsulfonamides as potent dual angiotensin II and endothelin A receptor antagonists” (J Med Chem, 2002)

Biological target: Type-1 angiotensin II receptor (Homo sapiens, UniProt P30556)
Experiment: Compound was evaluated for its binding affinity towards human Angiotensin II receptor, type 1
Procedure, shortened: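 Human recombinant AT1 receptor membranes in 50 mM Tris-HCl pH 7.4, 10 mM MgCl2, 1 mM EDTA, 0.1% BSA; 0.2 nM [125I]-Sar-Ile-angiotensin II displaced by increasing compound concentrations; nonspecific binding with 10 μM angiotensin II; 0.1% DMSO vehicle; 60 min at 37 °C; bound radioligand separated and gamma-counted; IC50 by curve fitting.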

CCCCC1=NC2(CCCC2)C(=O)N1Cc1ccc(-c2ccccc2S(=O)(=O)Nc2onc(C)c2C)c(CN2CCC(C)(C)C2=O)c1 [BMS-248360]
Ki: 10 nM
